Data on ten compounds can be found in patent US7408024B2, “Somatostatin antagonists” (The Administrators of the Tulane Educational Fund, priority 2001, dated 2008).

Amino acid sequences for entries named in this document (tags omitted). A change or cut given only in a name is not applied to a line headed by its entry.
UniProt P30872: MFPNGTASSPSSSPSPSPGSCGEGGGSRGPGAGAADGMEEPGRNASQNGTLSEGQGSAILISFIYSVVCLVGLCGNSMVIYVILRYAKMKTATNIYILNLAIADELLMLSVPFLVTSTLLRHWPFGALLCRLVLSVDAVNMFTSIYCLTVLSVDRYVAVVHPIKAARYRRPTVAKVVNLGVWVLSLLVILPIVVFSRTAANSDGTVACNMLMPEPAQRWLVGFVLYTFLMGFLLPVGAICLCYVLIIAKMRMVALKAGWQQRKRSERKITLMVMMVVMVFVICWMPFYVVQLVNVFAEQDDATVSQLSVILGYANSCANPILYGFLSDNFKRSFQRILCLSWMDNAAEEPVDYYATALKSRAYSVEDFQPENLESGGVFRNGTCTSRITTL
UniProt P31391: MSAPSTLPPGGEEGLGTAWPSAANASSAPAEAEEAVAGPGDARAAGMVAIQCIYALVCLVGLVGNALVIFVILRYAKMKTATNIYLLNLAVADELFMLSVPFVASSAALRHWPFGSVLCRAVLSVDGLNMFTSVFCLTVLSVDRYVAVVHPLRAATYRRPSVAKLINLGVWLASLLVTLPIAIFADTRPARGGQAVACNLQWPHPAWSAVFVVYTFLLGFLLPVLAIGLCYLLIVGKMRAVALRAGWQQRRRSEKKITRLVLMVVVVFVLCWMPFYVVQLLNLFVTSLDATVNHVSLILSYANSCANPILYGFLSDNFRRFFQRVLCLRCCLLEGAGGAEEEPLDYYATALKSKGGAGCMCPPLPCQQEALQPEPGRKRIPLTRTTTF
UniProt P35346: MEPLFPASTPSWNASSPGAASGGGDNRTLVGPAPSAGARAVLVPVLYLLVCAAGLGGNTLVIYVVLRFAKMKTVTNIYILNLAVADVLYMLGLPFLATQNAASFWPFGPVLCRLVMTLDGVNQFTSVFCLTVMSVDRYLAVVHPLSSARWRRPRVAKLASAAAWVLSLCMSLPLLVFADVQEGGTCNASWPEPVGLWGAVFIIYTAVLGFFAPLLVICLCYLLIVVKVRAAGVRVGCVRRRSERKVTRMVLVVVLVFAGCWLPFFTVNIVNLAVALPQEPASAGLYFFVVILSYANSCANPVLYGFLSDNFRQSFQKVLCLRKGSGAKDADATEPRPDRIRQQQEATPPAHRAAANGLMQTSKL
UniProt P30874: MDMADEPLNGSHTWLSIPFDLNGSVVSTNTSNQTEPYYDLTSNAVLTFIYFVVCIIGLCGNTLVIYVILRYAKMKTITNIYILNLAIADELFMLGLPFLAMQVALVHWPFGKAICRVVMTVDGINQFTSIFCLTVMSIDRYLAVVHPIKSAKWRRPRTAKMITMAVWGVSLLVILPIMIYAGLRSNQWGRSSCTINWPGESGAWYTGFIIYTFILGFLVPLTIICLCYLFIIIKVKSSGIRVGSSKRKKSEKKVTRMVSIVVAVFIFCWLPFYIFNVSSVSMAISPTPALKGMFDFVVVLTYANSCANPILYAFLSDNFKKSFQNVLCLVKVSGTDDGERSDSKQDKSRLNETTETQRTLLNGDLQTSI
UniProt P32745: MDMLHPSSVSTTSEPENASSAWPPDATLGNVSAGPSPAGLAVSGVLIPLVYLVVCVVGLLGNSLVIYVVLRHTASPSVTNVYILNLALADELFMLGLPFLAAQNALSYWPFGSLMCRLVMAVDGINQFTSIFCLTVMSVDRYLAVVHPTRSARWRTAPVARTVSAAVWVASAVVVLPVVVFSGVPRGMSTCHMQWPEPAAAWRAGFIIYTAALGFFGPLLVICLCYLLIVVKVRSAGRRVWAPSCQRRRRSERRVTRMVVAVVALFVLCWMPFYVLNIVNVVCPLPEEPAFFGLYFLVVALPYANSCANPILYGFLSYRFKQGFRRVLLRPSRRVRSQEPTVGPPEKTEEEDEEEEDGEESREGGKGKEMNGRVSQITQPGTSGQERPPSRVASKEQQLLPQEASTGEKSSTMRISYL

One test concerns the target T1, hsst1 (Homo sapiens, UniProt P30872).
T1 construct: each containing the entire coding region of the full-length receptors; expressed in transfected cells
As to the kind of experiment: Radioligand binding, cloned human sst1 receptor (CHO-K1 membranes). The conditions noted are these: [125I]Tyr11-SRIF, CHO-K1 cell membranes; single values = one binding experiment; read-out: K1 ± SEM hsst1. From the text: (§1) The genomic clones containing the human somatostatin receptors (hsstr1-5) (Yamada, Y., et al. al., Proc. Natl. Acad. Sci. USA. 1992, 89, 251-255; Yasuda, K., et al., J. Biol. Chem. 1992, 267, 20422-20428; Yamada, Y., et al., Mol. Pharmacol. 1992, 42, 2136-2142; Rohrer, L., et al., Proc. Natl. Acad. Sci. USA. 1993, 90, 4196-4200.), were kindly provided by Dr. Graeme I. Bell (University of Chicago). The hsstr1, hsstr2, hsstr3, hsstr4 and hsstr5 cDNAs were isolated as a 1.5-kb PstI-XmnI fragment, 1.7-kb BamHI-HindIII fragment, 2.0-kb NcoI-HindIII fragment, 1.4-kb NheI-NdeI fragment, and a 1.2-kb HindIII-XbaI fragment, respectively, each containing the entire coding region of the full-length receptors. These fragments were independently subdloned into the corresponding restriction endonuclease sites in the mammalian expression vector pCMV5, downstream from the human cytomegalovirus (CMV) promoter, to produce the expression plasmids pCMV5/hsstr1, pCMV5/hsstr2, pCMV5/hsstr3, pCMV5/hsstr4 and pCMV5/hsstr5. For transfection into CHO-K1 cells, a plasmid, pRSV-neo (American Type Culture Collection, Rockville, Md.), carrying the neomycin mammalian cell selectable marker was added.
(§2) Transfections were performed by the calcium phosphate method. CHO-K1 cells are maintained in α-minimum essential medium (α-MEM; Gibco) supplemented with 10% fetal calf serum and transfected with each of the expression plasmids using calcium phosphate precipitation. Clones that had inherited the expression plasmid were selected in α-MEM supplemented with 500 μg mL^−1 of geneticin (G418; Gibco). Independent CHO-K1 clones were picked by glass-ring cloning and expanded in culture in the selective media. Membranes were prepared from the isolated clones and hsstr expression was initially assessed for binding with [^125I]Tyr^11-SRIF and [^125]IMK-678 (for sstr2).
(§3) Cell membranes of the 5 receptor types were obtained from homogenates (Polytron setting 6, 15 sec) of the corresponding CHO-K1 cells, in ice-cold Tris-HCl (50 mM) and centrifuged (39000 g, 10 min×2), with an intermediate resuspension in fresh buffer. The final pellets are resuspended in Tris-HCl (10 mM) for assay. Aliquots of the membranes are incubated (30 min at 37° C.) with 0.05 nM [^125I]Tyr^11-SRIF (types 1,3,4,5) or [^125I]MK-678 (type 2) in 50 mM HEPES (pH 7.4) containing BSA (10 mg mL^−1); MgCl2 (5 mM), Trasylol (200 kIU mL^−1), bacitracin (0.02 mg mL^−1), and phenylmethanesulfonyl fluoride (0.02 mg mL^−1). The final assay volume is 0.3 mL and incubations are terminated by rapid filtration through GF/C filters pre-soaked in 0.3% poly(ethylenimine) using a Brandel rapid filtration module. Each tube and filter is then washed with aliquots of cold buffer (3×5 mL).
(§4) Specific binding is. defined as the total radioligand bound minus that bound in the presence of 1.0 μM SRIF.

Another test has as its target T2, hsst4 (Homo sapiens, UniProt P31391).
T2 construct: each containing the entire coding region of the full-length receptors; expressed in transfected cells
As to the kind of experiment: Radioligand binding, cloned human sst4 receptor (CHO-K1 membranes). The settings on record: [125I]Tyr11-SRIF, CHO-K1 cell membranes; single values = one binding experiment; read-out: K1 ± SEM hsst4.
Source text: as §1, §2, §3, §4

A further test concerns the target T3, hsst5 (Homo sapiens, UniProt P35346).
T3 construct: each containing the entire coding region of the full-length receptors; expressed in transfected cells
The test is described as follows: Radioligand binding, cloned human sst5 receptor (CHO-K1 membranes). The settings on record: [125I]Tyr11-SRIF, CHO-K1 cell membranes; single values = one binding experiment; read-out: K1 ± SEM hsst5.
Source text: as §1, §2
as §3, with “mL). […]” for “mL).”

A further test concerns the target T4, hsst2 (Homo sapiens, UniProt P30874).
T4 construct: each containing the entire coding region of the full-length receptors; expressed in transfected cells
The test is described as follows: Radioligand binding, cloned human sst2 receptor (CHO-K1 membranes). The settings on record: [125I]MK-678, CHO-K1 cell membranes; single values = one binding experiment; read-out: K1 ± SEM hsst2.
Source text: as §1, with “For transfection into CHO-K1 cells, a plasmid, pRSV-neo (American Type Culture Collection, Rockville, Md.), carrying the neomycin mammalian cell selectable marker was added.” left out
(§5) Transfections were performed by the calcium phosphate method. […] Membranes were prepared from the isolated clones and hsstr expression was initially assessed for binding with [^125I]Tyr^11-SRIF and [^125]IMK-678 (for sstr2). […]

The next test addresses T5, hsst3 (Homo sapiens, UniProt P32745).
T5 construct: each containing the entire coding region of the full-length receptors; expressed in transfected cells
The test is described as follows: Radioligand binding, cloned human sst3 receptor (CHO-K1 membranes). The settings on record: [125I]Tyr11-SRIF, CHO-K1 cell membranes; single values = one binding experiment; read-out: K1 ± SEM hsst3.
Source text: as §1, with “For transfection into CHO-K1 cells, a plasmid, pRSV-neo (American Type Culture Collection, Rockville, Md.), carrying the neomycin mammalian cell selectable marker was added.” left out
as §5

As for `C[C@@H](O)[C@@H]1NC(=O)[C@H](CCCCN)NC(=O)[C@@H](Cc2c[nH]c3ccccc23)NC(=O)[C@H](Cc2cccnc2)N(C)C(=O)[C@H](NC(=O)[C@@H](N)Cc2ccc(Cl)cc2)CSSC[C@@H](C(=O)N[C@@H](Cc2ccc3ccccc3c2)C(N)=O)NC1=O` [Peptide 3, Cpa-cyclo(DCys-Nme3-Pal-DTrp-Lys-Thr-Cys)-2-Nal-NH2], the Ki on hsst1 and at hsst4 was 1000 nM each time. As to `C[C@@H](O)[C@@H]1NC(=O)[C@H](CCCCN)NC(=O)[C@@H](Cc2c[nH]c3ccccc23)N(C)C(=O)[C@H](Cc2cccnc2)NC(=O)[C@H](NC(=O)[C@@H](N)Cc2ccc(Cl)cc2)CSSC[C@@H](C(=O)N[C@@H](Cc2ccc3ccccc3c2)C(N)=O)NC1=O` [Peptide 4, Cpa-cyclo(DCys-3-Pal-NMeDTrp-Lys-Thr-Cys)-2-Nal-NH2], the Ki at hsst1 and on hsst4 was 1000 nM each time. `C[C@@H](O)[C@@H]1NC(=O)[C@H](CCCCN)N(C)C(=O)[C@@H](Cc2c[nH]c3ccccc23)NC(=O)[C@H](Cc2cccnc2)NC(=O)[C@H](NC(=O)[C@@H](N)Cc2ccc(Cl)cc2)CSSC[C@@H](C(=O)N[C@@H](Cc2ccc3ccccc3c2)C(N)=O)NC1=O` [Peptide 5, Cpa-cyclo(DCys-3-Pal-DTrp-NMeLys-Thr-Cys)-2-Nal-NH2]: the Ki on hsst1 and at hsst4 was 1000 nM throughout. `C[C@@H](O)[C@H]1C(=O)N[C@H](C(=O)N[C@@H](Cc2ccc3ccccc3c2)C(N)=O)CSSC[C@@H](NC(=O)[C@@H](N)Cc2ccc(Cl)cc2)C(=O)N[C@@H](Cc2cccnc2)C(=O)N[C@H](Cc2c[nH]c3ccccc23)C(=O)N[C@@H](CCCCN)C(=O)N1C` [Peptide 6, Cpa-cyclo(DCys-3-Pal-DTrp-Lys-NMeThr-Cys)-2-Nal-NH2]: the Ki at hsst5 stood at 88.5 ± 45.7 nM. For `C[C@@H](O)[C@@H]1NC(=O)[C@H](CCCCN)NC(=O)[C@@H](Cc2c[nH]c3ccccc23)NC(=O)[C@H](Cc2cccnc2)NC(=O)[C@H](NC(=O)[C@@H](N)Cc2ccc(Cl)cc2)CSSC[C@@H](C(=O)N[C@@H](Cc2ccc3ccccc3c2)C(N)=O)N(C)C1=O` [Peptide 7, Cpa-cyclo(DCys-3-Pal-DTrp-Lys-Thr-NmeCys)-2-Nal-NH2], the Ki amounted to 1000 nM on hsst1 and 161 ± 52 nM at hsst5. With `C[C@@H](O)[C@@H]1NC(=O)[C@H](CCCCN)NC(=O)[C@@H](Cc2c[nH]c3ccccc23)NC(=O)[C@H](Cc2cccnc2)NC(=O)[C@H](NC(=O)[C@@H](N)Cc2ccc(Cl)cc2)CSSC[C@@H](C(=O)N(C)[C@@H](Cc2ccc3ccccc3c2)C(N)=O)NC1=O` [Peptide 8, Cpa-cyclo(DCys-3-Pal-DTrp-Lys-Thr-Cys)-(Nme)-2-Nal-NH2], the Ki on hsst1 was found to be 1000 nM; at hsst4, 1000 nM; at hsst2, 197 ± 55 nM.

As for `C[C@@H](O)[C@@H]1NC(=O)[C@H](CCCCN)NC(=O)[C@@H](Cc2c[nH]c3ccccc23)NC(=O)[C@H](Cc2cccnc2)NC(=O)[C@H](NC(=O)[C@@H](N)Cc2ccc(Cl)cc2)CSSC[C@@H](C(=O)N[C@@H](Cc2ccc3ccccc3c2)C(N)=O)NC1=O` [Peptide 9, Cpa-cyclo(DCys-3-Pal-DTrp-Lys-Thr-Cys)-Nal-NH2], the Ki worked out at 1390 nM at hsst1 and 140 ± 4.6 nM on hsst5.

Take `C[C@@H](O)[C@@H]1NC(=O)[C@H](CCCCN)N(C)C(=O)[C@@H](Cc2c[nH]c3ccccc23)NC(=O)[C@H](Cc2cccnc2)NC(=O)[C@H](NC(=O)[C@@H](N)Cc2ccc(Cl)cc2)CSSC[C@@H](C(=O)N[C@H](Cc2c[nH]c3ccccc23)C(N)=O)NC1=O` [Peptide 14, Cpa-cyclo(DCys-3-Pal-DTrp-NMeLys-Thr-Cys)-DTrp-NH2]: the Ki at hsst4 worked out at 1000 nM; at hsst5, 101 ± 14.1 nM.

Regarding `C[C@@H](O)[C@@H]1NC(=O)[C@H](CCCCN)N(C)C(=O)[C@@H](Cc2c[nH]c3ccccc23)NC(=O)[C@H](Cc2cccnc2)NC(=O)[C@H](NC(=O)[C@@H](N)Cc2ccc3ccccc3c2)CSSC[C@@H](C(=O)N[C@H](Cc2c[nH]c3ccccc23)C(N)=O)NC1=O` [Peptide 15, Nal-cyclo(DCys-3-Pal-DTrp-NMeLys-Thr-Cys)-DTrp-NH2], at hsst3, the Ki is 148 ± 13.2 nM. Consider `C[C@@H](O)[C@@H]1NC(=O)[C@H](CCCCN)N(C)C(=O)[C@@H](Cc2c[nH]c3ccccc23)NC(=O)[C@H](Cc2cccnc2)NC(=O)[C@H](NC(=O)[C@@H](N)Cc2cccnc2)CSSC[C@@H](C(=O)N[C@H](Cc2c[nH]c3ccccc23)C(N)=O)NC1=O` [Peptide 16, 3-Pal-cyclo(DCys-3-Pal-DTrp-NMeLys-Thr-Cys)-DTrp-NH2], for which the Ki on hsst4 came to 1000 nM.
